Biological target: Adenosine receptor A1 (Rattus norvegicus, UniProt P25099)
Assay: biochemical

Chains of the proteins cited; added tags and fusions are not shown.
UniProt P25099, whole entry: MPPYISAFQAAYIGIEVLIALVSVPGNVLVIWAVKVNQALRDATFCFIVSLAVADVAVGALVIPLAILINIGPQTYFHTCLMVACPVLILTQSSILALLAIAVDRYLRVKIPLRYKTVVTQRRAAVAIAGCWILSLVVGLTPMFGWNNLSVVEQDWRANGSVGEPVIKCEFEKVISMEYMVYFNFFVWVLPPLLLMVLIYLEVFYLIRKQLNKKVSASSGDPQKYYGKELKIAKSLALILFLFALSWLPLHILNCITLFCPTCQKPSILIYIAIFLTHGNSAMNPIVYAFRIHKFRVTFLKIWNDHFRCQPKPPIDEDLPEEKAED

CCCn1c(=O)c2nc(C3CC3)[nH]c2n(CCC)c1=O
Ki: 1.5 nM
